Results from patent US20250320302A1 (EVOTEC INTERNATIONAL, published 2025).

By UniProt entry, the sequences of proteins in these tests, tags left out. Residues count along the entry.
UniProt P25942, 21-277: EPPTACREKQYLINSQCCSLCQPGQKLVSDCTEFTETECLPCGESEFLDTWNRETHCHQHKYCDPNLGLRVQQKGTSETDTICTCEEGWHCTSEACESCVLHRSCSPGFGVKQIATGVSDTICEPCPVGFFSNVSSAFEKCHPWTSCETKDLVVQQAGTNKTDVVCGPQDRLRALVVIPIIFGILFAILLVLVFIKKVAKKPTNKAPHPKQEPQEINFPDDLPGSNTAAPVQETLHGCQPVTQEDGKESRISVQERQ

Assays:
human CD40 = human CD40 (human, UniProt P25942); assay: cell-based or functional assay
[1] = target: T1, human type I IFN receptor on HEK-Blue IFN-α/β cells (human, UniProt P17181 28-557; P48551 27-515); assay: cell-based or functional assay
T1 sequence (looked up) 1: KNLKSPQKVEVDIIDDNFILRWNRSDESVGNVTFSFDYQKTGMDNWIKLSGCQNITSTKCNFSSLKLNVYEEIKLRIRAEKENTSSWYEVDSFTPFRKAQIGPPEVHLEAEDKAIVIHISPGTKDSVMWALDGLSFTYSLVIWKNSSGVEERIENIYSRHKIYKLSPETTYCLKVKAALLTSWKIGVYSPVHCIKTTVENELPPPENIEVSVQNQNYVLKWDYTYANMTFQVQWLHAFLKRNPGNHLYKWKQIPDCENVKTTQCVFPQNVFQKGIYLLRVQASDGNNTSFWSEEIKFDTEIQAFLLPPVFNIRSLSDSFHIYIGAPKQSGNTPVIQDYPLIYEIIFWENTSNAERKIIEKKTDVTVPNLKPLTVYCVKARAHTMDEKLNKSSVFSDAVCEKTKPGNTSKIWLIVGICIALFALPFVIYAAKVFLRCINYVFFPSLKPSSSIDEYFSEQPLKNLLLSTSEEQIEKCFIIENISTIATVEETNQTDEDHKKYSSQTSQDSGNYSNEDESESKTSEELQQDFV
T1 sequence (looked up) 2: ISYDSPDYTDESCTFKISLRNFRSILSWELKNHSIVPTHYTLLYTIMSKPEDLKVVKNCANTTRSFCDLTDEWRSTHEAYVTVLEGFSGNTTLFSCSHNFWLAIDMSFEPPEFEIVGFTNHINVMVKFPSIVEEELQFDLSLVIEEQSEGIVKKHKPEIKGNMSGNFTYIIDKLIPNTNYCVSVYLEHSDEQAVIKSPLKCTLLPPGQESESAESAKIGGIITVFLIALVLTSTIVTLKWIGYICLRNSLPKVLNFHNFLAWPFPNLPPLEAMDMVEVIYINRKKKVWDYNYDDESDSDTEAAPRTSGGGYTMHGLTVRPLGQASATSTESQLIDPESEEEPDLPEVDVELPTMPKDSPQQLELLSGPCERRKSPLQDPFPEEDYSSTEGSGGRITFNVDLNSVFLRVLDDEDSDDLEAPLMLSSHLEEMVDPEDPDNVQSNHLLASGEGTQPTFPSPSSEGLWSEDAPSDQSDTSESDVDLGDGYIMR

B1: IFA46 (antibody, human IgG2, kappa)
light: DIQMTQSPSSVSASVGDRVTITCRASQGIYSWLAWYQQKPGKAPNLLIYTASTLQSGVPSRFSGSGSGTDFTLTISSLQPEDFATYYCQQANIFPLTFGGGTKVEIKRTVAAPSVFIFPPSDEQLKSGTASVVCLLNNFYPREAKVQWKVDNALQSGNSQESVTEQDSKDSTYSLSSTLTLSKADYEKHKVYACEVTHQGLSSPVTKSFNRGECGGGGSGGGGSGGGGSGGGGS[letters of about 150 residues left out]
heavy: QVQLVQSGAEVKKPGASVKVSCKASGYTFTGYYMHWVRQAPGQGLEWMGWINPDSGGTNYAQKFQGRVTMTRDTSISTAYMELNRLRSDDTAVYYCARDQPLGYCTNGVCSYFDYWGQGTLVTVSSASTKGPSVFPLAPCSRSTSESTAALGCLVKDYFPEPVTVSWNSGALTSGVHTFPAVLQSSGLYSLSSVVTVPSSNFGTQTYTCNVDHKPSNTKVDKTVERKCCVECPPCPAPPVAGPSVFLFPPKPKDTLMISRTPEVTCVVVDVSHEDPEVQFNWYVDGVEVHNAKTKPREEQFNSTFRVVSVLTVVHQDWLNGKEYKCKVSNKGLPAPIEKTISKTKGQPREPQVYTLPPSREEMTKNQVSLTCLVKGFYPSDIAVEWESNGQPENNYKTTPPMLDSDGSFFLYSKLTVDKSRWQQGNVFSCSVMHEALHNHYTQKSLSLSPGK
CD40 EC50 (HEK-Blue CD40L NFκB-SEAP reporter cells) (human CD40): 86.3 ng/mL
IFNω EC50 (HEK-Blue IFN-α/β SEAP reporter cells) [1]: 0.493 ng/mL
